The chains behind the UniProt entries cited, without tags or fusion partners. Where a name states a change or a piece, a line headed by the entry shows the natural chain unless it says otherwise.
UniProt P0A9A6: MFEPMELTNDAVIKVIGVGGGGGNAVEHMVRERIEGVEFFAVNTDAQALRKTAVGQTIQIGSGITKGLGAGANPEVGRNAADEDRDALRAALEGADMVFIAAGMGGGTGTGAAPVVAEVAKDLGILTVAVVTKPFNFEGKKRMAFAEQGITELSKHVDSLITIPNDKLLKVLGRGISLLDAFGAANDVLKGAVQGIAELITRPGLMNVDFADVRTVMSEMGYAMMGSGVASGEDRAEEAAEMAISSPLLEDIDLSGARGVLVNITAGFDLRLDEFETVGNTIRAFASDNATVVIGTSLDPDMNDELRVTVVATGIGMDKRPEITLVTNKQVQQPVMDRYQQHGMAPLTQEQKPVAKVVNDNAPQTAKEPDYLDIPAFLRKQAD

In patent publication US7575889B2, “Compound combinations for inhibiting cell division and methods for their identification and use” (President and Fellows of Harvard College, priority 2001, dated 2009):

Target: E. coli FtsZ (FtsZEc) GTPase (Escherichia coli, UniProt P0A9A6)
Settings: read-out: IC50 FtsZEc, 5 min preincubation at 30° C., 1 mM GTP, averages from three determinations
Protocol: FtsZ was preincubated with varying concentrations of compounds or with 3% DMSO in buffer E for 5 min at 30° C., before adding 1 mM GTP to the reactions. Reaction kinetics were followed by measuring inorganic phosphate released upon GTP hydrolysis. The IC50 values were extrapolated from log dose-response curves and are averages from three independent determinations.

C=CCOc1c(Br)cc(S(=O)(=O)c2cc(Br)c(O)c(Br)c2)cc1Br [18M-04]
IC50: 25 µM
